Chains of the proteins cited; added tags and fusions are not shown. Residues count along the entry.
UniProt I3ZNT9, 26-169 limits assumed: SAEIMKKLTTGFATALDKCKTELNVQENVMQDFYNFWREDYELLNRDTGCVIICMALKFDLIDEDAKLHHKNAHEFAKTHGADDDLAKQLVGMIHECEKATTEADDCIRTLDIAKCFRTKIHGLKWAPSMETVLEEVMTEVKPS

According to paper PMC4772377, “Structural insights into Cydia pomonella pheromone binding protein 2 mediated prediction of potentially active semiochemicals” (Scientific Reports, 2016):

Key:
CpomPBP2 = CpomPBP2 (Cydia pomonella, UniProt I3ZNT9); experiment: Competitive fluorescence binding assay with 1-NPN probe; conditions: read-out: dissociation constant (KD) of 1-NPN; 2 μM CpomPBP2, 50 mM Tris-HCl pH 6.8, binding curve and Scatchard plot
[1] = tested on: TPBP2 (C-terminus truncated CpomPBP2); experiment: 1-NPN fluorescence / competitive binding assay on C-terminus truncated CpomPBP2; conditions: read-out: binding constant of 1-NPN; 2 μM TPBP2, 50 mM Tris-HCl pH 6.8, binding curve and Scatchard plot

c1ccc(Nc2cccc3ccccc23)cc1
Kd (CpomPBP2): 7.85 µM | Kd [1]: 15.4 µM
